By IC50 is commonly meant the midpoint of a concentration-inhibition curve. Low values mean inhibition by little substance, high ones a need for much substance.

The chains behind the UniProt entries cited, without tags or fusion partners. Where a name states a change or a piece, a line headed by the entry shows the natural chain unless it says otherwise.
UniProt P35346: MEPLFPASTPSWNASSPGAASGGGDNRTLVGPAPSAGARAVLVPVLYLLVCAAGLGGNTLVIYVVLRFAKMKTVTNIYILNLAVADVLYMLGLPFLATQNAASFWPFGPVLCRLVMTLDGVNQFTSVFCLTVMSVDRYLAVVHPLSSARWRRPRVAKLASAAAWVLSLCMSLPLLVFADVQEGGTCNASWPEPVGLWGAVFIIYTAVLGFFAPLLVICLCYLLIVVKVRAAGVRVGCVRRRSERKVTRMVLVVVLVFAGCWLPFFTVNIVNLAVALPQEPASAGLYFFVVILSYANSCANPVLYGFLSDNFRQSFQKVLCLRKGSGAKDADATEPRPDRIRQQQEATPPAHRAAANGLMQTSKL

These results are taken from patent US20040044177A1, “Peptide compounds having improved binding affinity to somatostatin receptors” (priority 2002, published 2004).

The test addresses human somatostatin receptor subtype hsst5 (Homo sapiens, UniProt P35346). Kind of test: In vitro binding affinity of peptide analogs (Table III), hsst5. The following applies: DOTA complexed with stable Y or In. On the procedure:
Table III, presents the binding affinity of the new compounds to human somatostatin receptor subtypes as compared to the compound, Y-DOTA-TATE, described by Srinivasan et al. (U.S. Pat. No. 5,830,431).
IC50 values were determined as described by Reubi et al. (Eur J Nuc Med 28:836-846, 2001).

As to `C[C@@H](O)[C@H](NC(=O)[C@@H]1CSSC[C@H](NC(=O)[C@@H](Cc2ccccc2)NC(=O)CN2CCN(CC(=O)O)CCN(CC(=O)O)CCN(CC(=O)O)CC2)C(=O)N[C@@H](Cc2ccc(O)cc2)C(=O)N[C@H](Cc2c[nH]c3ccccc23)C(=O)N[C@@H](CCCCN)C(=O)N[C@@H]([C@@H](C)O)C(=O)N1)C(=O)O` [compound 1, reference compound], the IC50 amounted to 187 nM.
